Earlier results, collected in patent US12150928B2, “Methods of treating sarin exposure with tetrahydrocannabinol and cannabidiol combinations” (dated 2024).

Legend:
[1] = aqueous media, pH values ranging from 1.2 to 7.0
[2] = in the absence of OP intoxication

Row | Compound | solubility [1] | dose causing severe poisoning [2] | fatal dose [2]
1 | CCCCCCC(C)(C)c1cc(O)c2c(c1)OC(C)(C)[C@@H]1CCC(=O)C[C@@H]21 (racemic) | less than 0.5 mg/L | – | –
2 | CN1[C@@H]2CC[C@H]1C[C@@H](OC(=O)C(CO)c1ccccc1)C2 (stereo partly drawn) | – | 2 mg | 100 mg
